Consider one substance from US20210290732A1, “GLP-1R and GCGR Agonists, Formulations, and Methods of Use” (Spitfire Pharma LLC, priority 2020, published 2021).

The assay deals with bovine serum albumin (BSA) (bovine) (UniProt P02769). The assay can be described thus: cell-based or functional assay.

As to “Exendin-4 (from UniProt P26349 48-86) (peptide)”, the Fold Improvement (EC50 in presence of BSA/EC50 in presence of OVA), GLP-1R assay was 1 fold.
